Values of other authors as cited in patent publication US20120149888A1, “SYNTHESIS OF ARA-2'-O-METHYL-NUCLEOSIDES, CORRESPONDING PHOSPHORAMIDITES AND OLIGONUCLEOTIDES INCORPORATING NOVEL MODIFICATIONS FOR BIOLOGICAL APPLICATION IN THERAPEUCTICS, DIAGNOSTICS, G- TETRAD FORMING OLIGONUCLEOTIDES AND APTAMERS” (priority 2009, published 2012).

Conditions: polarographically, aprotic conditions, in the presence of alpha-lipoic acid

2,T-anhydrouridine
index of potential carcinogenicity tg alpha: 0.260
